From patent US20120270884A1, “Methods of Treating Aneurysmal Dilatation, Blood Vessel Wall Weakness and Specifically Abdominal Aortic and Thoracic Aneurysm Using Matrix Metalloprotease-2 Inhibitors” (SYMPHONY EVOLUTION, INC., priority 2009, published 2012)

Experiments:
Format in all cases: biochemical
[1] = molecular target: T1, MMP-2 (72 kDa gelatinase, gelatinase A) (Homo sapiens, UniProt P08253); assay: In vitro metalloprotease inhibition, MMP-2
T1 sequence (P08253 110-660): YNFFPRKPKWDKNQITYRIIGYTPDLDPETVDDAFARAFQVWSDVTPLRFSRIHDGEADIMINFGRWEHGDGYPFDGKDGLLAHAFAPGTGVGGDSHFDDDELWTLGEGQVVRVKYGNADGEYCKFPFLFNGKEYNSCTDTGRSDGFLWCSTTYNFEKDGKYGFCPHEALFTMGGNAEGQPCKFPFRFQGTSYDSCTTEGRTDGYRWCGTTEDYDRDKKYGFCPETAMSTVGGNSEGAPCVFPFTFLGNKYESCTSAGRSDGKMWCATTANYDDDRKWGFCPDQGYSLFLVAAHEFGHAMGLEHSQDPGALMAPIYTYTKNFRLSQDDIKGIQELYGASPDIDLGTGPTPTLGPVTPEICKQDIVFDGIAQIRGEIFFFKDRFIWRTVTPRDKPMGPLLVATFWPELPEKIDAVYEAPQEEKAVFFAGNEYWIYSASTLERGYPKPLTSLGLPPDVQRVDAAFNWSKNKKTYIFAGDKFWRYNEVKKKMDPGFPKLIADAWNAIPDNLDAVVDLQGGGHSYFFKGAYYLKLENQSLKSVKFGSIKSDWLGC
Text: (§1) Blank cells indicate lack of data only.

[2] = molecular target: MMP-9 (92 kDa gelatinase, gelatinase B) (Homo sapiens, UniProt P14780); assay: In vitro metalloprotease inhibition, MMP-9
Text: as §1

[3] = molecular target: MMP-8 (Neutrophil collagenase) (Homo sapiens, UniProt P22894); assay: In vitro metalloprotease inhibition, MMP-8
Text: as §1

MMP-13 (collagenase-3) = MMP-13 (collagenase-3) (Homo sapiens, UniProt P45452); assay: In vitro metalloprotease inhibition, MMP-13
Text: as §1

Measured: IC50

COCCOC(=O)N1CCN(S(=O)(=O)c2cc(F)c(Oc3ccc(Cl)cc3)c(F)c2)[C@@H](C(=O)NO)C1 [Entry 15]
< 50 nM: [1] | [2] | [3] | MMP-13 (collagenase-3)
